# Experiments:
# ferroportin [1] = molecular target: T1, ferroportin (Homo sapiens, UniProt Q9NP59); test: FPN internalization assay (FPN activity assay), loss of ferroportin-GFP fluorescence; type: cell-based
# T1 sequence (Q9NP59 1-571): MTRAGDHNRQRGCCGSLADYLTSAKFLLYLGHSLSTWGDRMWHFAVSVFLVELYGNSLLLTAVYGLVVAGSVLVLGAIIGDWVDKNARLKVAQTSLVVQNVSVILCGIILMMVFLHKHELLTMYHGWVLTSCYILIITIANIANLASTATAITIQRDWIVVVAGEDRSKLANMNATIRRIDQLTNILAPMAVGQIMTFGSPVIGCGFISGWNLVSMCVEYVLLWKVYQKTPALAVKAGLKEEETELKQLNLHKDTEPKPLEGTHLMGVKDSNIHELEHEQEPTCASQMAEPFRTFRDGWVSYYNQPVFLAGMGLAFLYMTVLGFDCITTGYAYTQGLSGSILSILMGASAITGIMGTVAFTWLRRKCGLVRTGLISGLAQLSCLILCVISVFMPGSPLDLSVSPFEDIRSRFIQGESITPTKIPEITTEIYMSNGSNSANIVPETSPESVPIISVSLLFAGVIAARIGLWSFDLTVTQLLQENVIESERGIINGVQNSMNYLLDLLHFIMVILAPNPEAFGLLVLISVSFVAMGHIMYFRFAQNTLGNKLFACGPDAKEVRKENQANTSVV
# ferroportin [2] = molecular target: T1, ferroportin; test: T47D internalization assay in presence of mouse serum albumin; type: cell-based; design: a human breast carcinoma adherent cell line which endogenously expresses ferroportin; host or cells: T47D; details: T47D cells, 0.5% mouse serum albumin, 1 hr incubation
# Description: The potency of the peptides disclosed in causing ferroportin internalization was evaluated in a T47D cell-based assay. […] In this internalization assay, the potency of the test peptides was evaluated in presence of serum albumin which is the main protein component in the blood. T47D cells were maintained in RPMI media (containing required amount of fetal bovine serum) and regularly sub-cultured. In preparation for the assay, the cells were seeded in 96-well plates at a density of 80-100 k cells per well in 100 ul volume and allowed to rest overnight. On the next day, test peptides were first prepared in dilution series (10-point series, starting concentration of ˜5 μM, typically 3-4×fold dilution steps), all with 0.5% mouse serum albumin (MSA purified from mouse serum; Sigma, A3139). The test peptide dilution series were allowed to incubate at room temperature for 30 min. Then the media was aspirated from the 96-well cell plate and test peptide dilution series were added. After 1 hr incubation, the media with test peptides was aspirated out and AF647-conjugated detection peptide was added at fixed concentration of 200 nM. The AF647-conjugated detection peptide was previously verified to bind to ferroportin and cause its internalization. The cells were washed again after a 2 hr incubation in preparation for flow cytometry analysis. The Median Fluorescence Intensity (MFI) of the AF647-positive population was measured (after removing dead cells and non-singlets from the analysis). The MFI values were used to generate a dose-response curve and obtain IC50 potencies for the test peptides. The IC50 potencies were calculated by using 4-parameter non-linear fitting function in Graphpad Prism and the results are provided in Table 1C.
# [3] = Table 1C, HEK293 cells stably expressing ferroportin-GFP, compound at least 18 hours, read-out: IC50: FPN
# [4] = Table 1C, read-out: IC50: T47D MSA
# [5] = Table 1D, HEK293 cells stably expressing ferroportin-GFP, compound at least 18 hours, read-out: IC50: FPN
# [6] = Table 1D, read-out: IC50: T47D MSA
SMILES,IC50 (ferroportin [1]; [5]) [nM],IC50 (ferroportin [2]; [6]) [nM],further results
CC(C)CC(=O)N[C@@H](CCC(=O)O)C(=O)N[C@H](C(=O)N[C@@H](Cc1c[nH]cn1)C(=O)N[C@H](C(=O)N1CCC[C@H]1C(=O)N[C@H](C(=O)N(C)[C@@H](CCCCNC(=O)COCCOCCNC(=O)COCCOCCNC(=O)[C@H](CN)NC(=O)CCCCCCCCCCCCCCCCC(=O)O)C(=O)N[C@@H](Cc1ccc(-c2ccccc2)cc1)C(=O)N[C@H](CCCCN)C(N)=O)C1CCCCC1)C(c1ccccc1)c1ccccc1)[C@@H](C)O [compound 37],,,IC50 (ferroportin [1]; [3]): 1 to 30 nM; IC50 (ferroportin [2]; [4]): 10 to 100 nM
CC(C)CC(=O)N[C@@H](CCC(=O)O)C(=O)N[C@H](C(=O)N[C@@H](Cc1c[nH]cn1)C(=O)N[C@H](C(=O)N1CCC[C@H]1C(=O)N[C@H](CCCCN)C(=O)N(CC1CC1)C(CCCCCCC(=O)O)C(N)=O)C(c1ccccc1)c1ccccc1)[C@@H](C)O (some centres unmarked) [compound 155],,,"IC50 (ferroportin [1]): > 500 nM; IC50 (ferroportin [2]; IC50: T47D MSA (nM, Table 1D)): > 500 nM"
CCCCCCCCCCCCCCCC(=O)N[C@@H](CN)C(=O)NCCOCCOCC(=O)NCCOCCOCC(=O)NCCCC[C@H](NC(=O)[C@@H]1C[C@@H]2CN1C(=O)[C@H](C(c1ccccc1)c1ccccc1)NC(=O)[C@H](Cc1cnc[nH]1)NC(=O)[C@@H]1C[C@@H](CN1C(=O)[C@H](CCC(=O)O)NC(=O)CC(C)C)SS2)C(=O)NCCCCc1ccccc1 [compound 23],,,IC50 (ferroportin [1]; [3]): 1 to 30 nM; IC50 (ferroportin [2]; [4]): 0.1 to 10 nM
COC(=O)CC[C@H](NC(=O)CC(C)C)C(=O)N[C@H](C(=O)N[C@@H](Cc1c[nH]cn1)C(=O)N[C@H](C(=O)N1CCC[C@H]1C(=O)N(C)[C@@H](CCCCNC(=O)C[N+](C)(C)CCNC(=O)C[N+](C)(C)CCNC(=O)CCCc1ccc(I)cc1)C(=O)NCCCCCc1ccccc1)C(c1ccccc1)c1ccccc1)[C@@H](C)O [compound 65],100 to 500,10 to 100,
CCCCCCCCCCCCCCCC(=O)NCCCCCC(=O)NCCOc1ccc(C[C@H](NC(=O)[C@@H]2CCCN2C(=O)[C@@H](NC(=O)[C@H](Cc2c[nH]cn2)NC(=O)[C@@H](NC(=O)[C@H](CCC(=O)O)NC(=O)CC(C)C)[C@@H](C)O)C(c2ccccc2)c2ccccc2)C(N)=O)cc1 [compound 35],,,IC50 (ferroportin [1]; [3]): 100 to 500 nM; IC50 (ferroportin [2]; [4]): 100 to 500 nM
COC(=O)CCC(CCCC(C)C)C(=O)N[C@H]1CSSC[C@@H](C(=O)N(C)[C@@H](CCCCN)C(=O)NCCCCc2ccccc2)NC(=O)[C@H](C(c2ccccc2)c2ccccc2)NC(=O)[C@H](Cc2c[nH]cn2)NC1=O (some centres unmarked) [compound 176],> 500,> 500,
CC(C)CC(=O)N[C@@H](CCC(=O)O)C(=O)N[C@H](C(=O)N[C@@H](Cc1c[nH]cn1)C(=O)N[C@H](C(=O)N1CCC[C@H]1C(=O)N[C@H](CCCCN)C(=O)N(CCC(=O)O)C(CCc1ccccc1)C(N)=O)C(c1ccccc1)c1ccccc1)[C@@H](C)O (some centres unmarked) [compound 140],,,"IC50 (ferroportin [1]): > 500 nM; IC50 (ferroportin [2]; IC50: T47D MSA (nM, Table 1D)): > 500 nM"
CC(C)CC(=O)N[C@@H](CCC(=O)O)C(=O)N[C@H](C(=O)N[C@@H](Cc1c[nH]cn1)C(=O)N[C@H](C(=O)N1CCC[C@H]1C(=O)NC1C2CC3CC1CC(C(=O)N[C@@H](CCCCNC(=O)COCCOCCNC(=O)COCCOCCNC(=O)[C@H](CN)NC(=O)CCCCCCCCCCCCCCCCC(=O)O)C(=O)N[C@H](CC(=O)N[C@H](CCCCN)C(N)=O)Cc1ccccc1)(C3)C2)C(c1ccccc1)c1ccccc1)[C@@H](C)O (some centres unmarked) [compound 48],,,"IC50 (ferroportin [1]): 30 to 100 nM; IC50 (ferroportin [2]; IC50: T47D MSA, Table 1C): 10 to 100 nM"
CC(C)CC(=O)N[C@@H](CCC(=O)O)C(=O)N[C@H](C(=O)N[C@@H](Cc1c[nH]cn1)C(=O)N[C@H](C(=O)N1CCC[C@H]1C(=O)N[C@@H](CCCCNC(=O)COCCOCCNC(=O)COCCOCCNC(=O)CC[C@H](NC(=O)CC[C@@H](C)[C@H]1CC[C@H]2[C@@H]3CC[C@@H]4C[C@H](O)CC[C@]4(C)[C@H]3C[C@H](O)[C@]12C)C(=O)O)C(=O)NCCCCc1ccccc1)C(c1ccccc1)c1ccccc1)[C@@H](C)O [compound 128],1 to 30,,"IC50 (ferroportin [2]; IC50: T47D MSA (nM, Table 1D)): 10 to 100 nM"
CC(C)CC(=O)N[C@@H](CCC(=O)O)C(=O)N[C@H](C(=O)N[C@@H](Cc1c[nH]cn1)C(=O)N[C@H](C(=O)N1CCC[C@H]1C(=O)N[C@H](CCCCN)C(=O)N(CC1CC1)C(CCCCCCC(=O)O)C(=O)O)C(c1ccccc1)c1ccccc1)[C@@H](C)O (some centres unmarked) [compound 154],,,"IC50 (ferroportin [1]): > 500 nM; IC50 (ferroportin [2]; IC50: T47D MSA (nM, Table 1D)): > 500 nM"
CC(C)CC(=O)N[C@H]1CCC(=O)NCCCC[C@H](C(N)=O)NC(=O)[C@H](C(c2ccccc2)c2ccccc2)NC(=O)[C@H](CCCCNC(=O)CCCc2ccc(I)cc2)N(C)C(=O)[C@H](C2CCCCC2)NC(=O)[C@@H]2CCCN2C(=O)[C@H](C(c2ccccc2)c2ccccc2)NC(=O)[C@H](Cc2c[nH]cn2)NC(=O)[C@H]([C@@H](C)O)NC1=O [compound 78],1 to 30,100 to 500,

# Second part, led by results:
IC50 (ferroportin [1]; [5]) [nM],IC50 (ferroportin [2]; [6]) [nM],SMILES,further results
1 to 30,10 to 100,CCCCCCCCCCCCCCCC(=O)NCC[N+](C)(C)CC(=O)NCCCCCC(=O)NCCCC[C@H](NC(=O)[C@@H]1CCCN1C(=O)[C@@H](NC(=O)[C@H](Cc1c[nH]cn1)NC(=O)[C@@H](NC(=O)[C@H](CCC(=O)O)NC(=O)CC(C)C)[C@@H](C)O)C(c1ccccc1)c1ccccc1)C(=O)NCCCCc1ccccc1 [compound 219],
100 to 500,> 500,CC(C)CC(=O)N[C@@H](CCC(=O)O)C(=O)N[C@H](C(=O)N[C@@H](Cc1c[nH]cn1)C(=O)N[C@H](C(=O)N1CCC[C@H]1C(=O)N[C@@H](CCCC[N+](C)(C)C)C(=O)NCCCCc1ccccc1)C(c1ccccc1)c1ccccc1)[C@@H](C)O [compound 199],
1 to 30,0.1 to 10,CCCCCCCCCCCCCCCC(=O)NCC[N+](C)(C)CC(=O)NCCOCCOCC(=O)NCCOCCOCC(=O)NCCCC[C@H](NC(=O)[C@@H]1C[C@@H]2CN1C(=O)[C@H](C(c1ccccc1)c1ccccc1)NC(=O)[C@H](Cc1c[nH]cn1)NC(=O)[C@@H]1C[C@@H](CN1C(=O)[C@H](CCC(=O)O)NC(=O)CC(C)C)SS2)C(=O)NCCCCc1ccccc1 [compound 169],
100 to 500,10 to 100,CCCCCCCCCCCCCCCC(=O)N[C@@H](CN)C(=O)NCCOCCOCC(=O)NCCOCCOCC(=O)NCCCC[C@H](NC(=O)[C@@H]1CCSSCC[C@H](NC(=O)[C@H](CCC(=O)O)NC(=O)CC(C)C)C(=O)N[C@@H](Cc2c[nH]cn2)C(=O)N[C@@H](C(c2ccccc2)c2ccccc2)C(=O)N1)C(=O)NCCCCc1ccccc1 [compound 166],
100 to 500,> 500,CC(C)CC(=O)N[C@@H](CCC(=O)O)C(=O)N[C@H](C(=O)N[C@@H](Cc1c[nH]cn1)C(=O)N[C@H](C(=O)N1CCC[C@H]1C(=O)N[C@@H](CCCCN)C(=O)NCCCCc1ccccc1)C(c1ccccc1)c1ccccc1)[C@@H](C)O [compound 217],
30 to 100,100 to 500,CCCCCCCCCCCCCCCC(=O)NCC[N+](C)(C)CC(=O)NCCOCCOCC(=O)NCCOCCOCC(=O)NCCCC[C@H](NC(=O)[C@@H]1C[C@@H]2CN1C(=O)[C@H](C(c1ccccc1)c1ccccc1)NC(=O)[C@H](Cc1c[nH]cn1)NC(=O)[C@@H](NC(=O)[C@H](CCC(=O)O)NC(=O)CC(C)C)CCC(=O)N2)C(=O)NCCCCc1ccccc1 [compound 190],
1 to 30,0.1 to 10,CCCCCCCC/C=C\CCCCCCCC(=O)N[C@@H](CN)C(=O)NCCOCCOCC(=O)NCCOCCOCC(=O)NCCCC[C@H](NC(=O)[C@@H]1CCCN1C(=O)[C@@H](NC(=O)[C@H](Cc1c[nH]cn1)NC(=O)[C@@H](NC(=O)[C@H](CCC(=O)O)NC(=O)CC(C)C)[C@@H](C)O)C(c1ccccc1)c1ccccc1)C(=O)NCCCCc1ccccc1 [compound 130],
30 to 100,10 to 100,CCCCCCCC/C=C\CCCCCCCC(=O)N[C@@H](CCC(=O)NCCOCCOCC(=O)NCCOCCOCC(=O)NCCCC[C@H](NC(=O)[C@@H]1CSSC[C@H](NC(=O)[C@H](CCC(=O)O)NC(=O)CC(C)C)C(=O)N[C@@H](Cc2c[nH]cn2)C(=O)N[C@@H](C(c2ccccc2)c2ccccc2)C(=O)N1)C(=O)NCCCCc1ccccc1)C(=O)O [compound 127],
